Assay results reported in ChEMBL document CHEMBL1125819, “Novel benzamides as selective and potent gastrokinetic agents. 2. Synthesis and structure-activity relationships of 4-amino-5-chloro-2-ethoxy-N-[[4-(4-fluorobenzyl)-2- morpholinyl]methyl] benzamide citrate (AS-4370) and related compounds” (J Med Chem, 1991).

Amino acid sequences for entries named in this document (tags omitted).
UniProt P61169, whole entry: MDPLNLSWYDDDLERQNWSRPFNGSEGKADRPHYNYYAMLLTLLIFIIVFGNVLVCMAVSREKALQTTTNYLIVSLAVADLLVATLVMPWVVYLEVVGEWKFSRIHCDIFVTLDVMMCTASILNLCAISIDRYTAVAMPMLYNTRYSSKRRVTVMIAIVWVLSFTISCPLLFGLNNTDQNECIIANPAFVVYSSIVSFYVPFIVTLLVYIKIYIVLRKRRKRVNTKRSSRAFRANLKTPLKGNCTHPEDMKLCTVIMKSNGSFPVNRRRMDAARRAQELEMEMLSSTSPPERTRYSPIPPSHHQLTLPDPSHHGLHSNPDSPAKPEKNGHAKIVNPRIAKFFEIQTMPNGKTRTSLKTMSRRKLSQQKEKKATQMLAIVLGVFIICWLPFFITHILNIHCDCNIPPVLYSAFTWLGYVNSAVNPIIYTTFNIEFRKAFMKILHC

Biological target: D(2) dopamine receptor (Rattus norvegicus, UniProt P61169)
Experiment: Inhibitory activity against dopamine receptor D2 by 3H ligand binding experiments.
How it was run: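 Competition binding used rat striatal synaptic membranes (10 mg wet tissue per assay) with [3H]spiperone. Test compounds spanned 0.01–1000 μM. Assays were started by adding tissue and stopped by rapid glass-fibre filtration with ice-cold buffer washes. Filters were solubilised and radioactivity counted.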

- IC50: 390 nM
Structure (SMILES): COc1cc(N)c(Cl)cc1C(=O)NC1CCN(CCCOc2ccc(F)cc2)CC1OC (stereo unspecified) [CISAPRIDE]
